Measurements from ChEMBL document CHEMBL4699451, “Discovery of BIIB068: A Selective, Potent, Reversible Bruton's Tyrosine Kinase Inhibitor as an Orally Efficacious Agent for Autoimmune Diseases” (J Med Chem, 2020).

Protein sequences, listed by entry. Tags and fused reporters are not part of them. Lines headed by an entry give the natural chain unless they say otherwise; changes in a name come on top.
UniProt Q2M2I8: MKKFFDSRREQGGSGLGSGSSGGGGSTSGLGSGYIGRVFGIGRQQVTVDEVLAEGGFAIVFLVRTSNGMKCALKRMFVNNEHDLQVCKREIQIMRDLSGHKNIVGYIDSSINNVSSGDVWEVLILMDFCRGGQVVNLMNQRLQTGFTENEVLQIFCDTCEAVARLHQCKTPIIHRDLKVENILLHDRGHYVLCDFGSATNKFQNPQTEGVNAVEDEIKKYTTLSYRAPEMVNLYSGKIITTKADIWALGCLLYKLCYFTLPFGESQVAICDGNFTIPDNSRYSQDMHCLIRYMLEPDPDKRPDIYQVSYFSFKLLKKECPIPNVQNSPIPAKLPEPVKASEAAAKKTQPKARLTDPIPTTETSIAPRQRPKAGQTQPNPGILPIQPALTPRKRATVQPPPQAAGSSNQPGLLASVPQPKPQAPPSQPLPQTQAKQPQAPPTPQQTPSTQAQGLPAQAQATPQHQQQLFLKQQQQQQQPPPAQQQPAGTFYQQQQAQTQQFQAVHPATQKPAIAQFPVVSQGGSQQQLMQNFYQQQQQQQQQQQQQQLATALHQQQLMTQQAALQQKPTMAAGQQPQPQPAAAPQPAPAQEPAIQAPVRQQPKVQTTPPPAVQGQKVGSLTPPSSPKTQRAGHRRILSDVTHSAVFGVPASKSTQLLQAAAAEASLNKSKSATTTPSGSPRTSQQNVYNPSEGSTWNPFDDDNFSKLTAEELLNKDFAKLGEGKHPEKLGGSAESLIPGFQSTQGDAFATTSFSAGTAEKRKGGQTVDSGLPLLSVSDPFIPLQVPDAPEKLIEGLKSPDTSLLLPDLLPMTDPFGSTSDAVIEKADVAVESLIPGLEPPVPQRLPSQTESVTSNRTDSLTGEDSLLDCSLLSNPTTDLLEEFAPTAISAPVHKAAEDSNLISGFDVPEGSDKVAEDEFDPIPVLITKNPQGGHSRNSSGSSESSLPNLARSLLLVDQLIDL
UniProt Q9NSY1, whole entry: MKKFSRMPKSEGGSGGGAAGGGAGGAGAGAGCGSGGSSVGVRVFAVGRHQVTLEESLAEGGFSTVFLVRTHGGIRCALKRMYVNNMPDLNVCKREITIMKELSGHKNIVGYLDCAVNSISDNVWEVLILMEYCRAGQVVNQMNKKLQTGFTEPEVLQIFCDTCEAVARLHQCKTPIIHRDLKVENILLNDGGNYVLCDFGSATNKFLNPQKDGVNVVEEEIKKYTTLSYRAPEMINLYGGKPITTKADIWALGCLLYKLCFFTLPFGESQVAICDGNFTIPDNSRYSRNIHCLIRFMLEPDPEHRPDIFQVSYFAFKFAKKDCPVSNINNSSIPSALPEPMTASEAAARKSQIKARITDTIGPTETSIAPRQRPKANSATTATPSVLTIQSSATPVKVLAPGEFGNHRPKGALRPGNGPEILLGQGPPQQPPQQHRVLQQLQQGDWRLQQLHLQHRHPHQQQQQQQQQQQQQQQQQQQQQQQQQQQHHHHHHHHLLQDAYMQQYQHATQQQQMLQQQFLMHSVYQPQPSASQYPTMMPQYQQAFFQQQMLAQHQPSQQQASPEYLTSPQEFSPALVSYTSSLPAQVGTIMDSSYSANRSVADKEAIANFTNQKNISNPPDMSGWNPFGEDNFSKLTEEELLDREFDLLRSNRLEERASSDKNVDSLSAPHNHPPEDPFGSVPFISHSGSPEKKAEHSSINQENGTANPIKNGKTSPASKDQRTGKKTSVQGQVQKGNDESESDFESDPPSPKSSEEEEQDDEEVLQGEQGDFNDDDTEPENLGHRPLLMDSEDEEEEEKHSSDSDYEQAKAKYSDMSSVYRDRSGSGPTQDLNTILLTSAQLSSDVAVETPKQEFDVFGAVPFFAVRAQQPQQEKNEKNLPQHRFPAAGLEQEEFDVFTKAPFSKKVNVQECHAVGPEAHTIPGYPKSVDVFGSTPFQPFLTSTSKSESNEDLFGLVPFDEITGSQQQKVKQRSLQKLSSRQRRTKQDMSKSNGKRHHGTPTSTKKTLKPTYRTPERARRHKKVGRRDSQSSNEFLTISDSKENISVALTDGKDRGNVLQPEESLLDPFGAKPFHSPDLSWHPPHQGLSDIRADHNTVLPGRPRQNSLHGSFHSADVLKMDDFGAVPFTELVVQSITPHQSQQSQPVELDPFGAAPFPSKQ
UniProt O60674: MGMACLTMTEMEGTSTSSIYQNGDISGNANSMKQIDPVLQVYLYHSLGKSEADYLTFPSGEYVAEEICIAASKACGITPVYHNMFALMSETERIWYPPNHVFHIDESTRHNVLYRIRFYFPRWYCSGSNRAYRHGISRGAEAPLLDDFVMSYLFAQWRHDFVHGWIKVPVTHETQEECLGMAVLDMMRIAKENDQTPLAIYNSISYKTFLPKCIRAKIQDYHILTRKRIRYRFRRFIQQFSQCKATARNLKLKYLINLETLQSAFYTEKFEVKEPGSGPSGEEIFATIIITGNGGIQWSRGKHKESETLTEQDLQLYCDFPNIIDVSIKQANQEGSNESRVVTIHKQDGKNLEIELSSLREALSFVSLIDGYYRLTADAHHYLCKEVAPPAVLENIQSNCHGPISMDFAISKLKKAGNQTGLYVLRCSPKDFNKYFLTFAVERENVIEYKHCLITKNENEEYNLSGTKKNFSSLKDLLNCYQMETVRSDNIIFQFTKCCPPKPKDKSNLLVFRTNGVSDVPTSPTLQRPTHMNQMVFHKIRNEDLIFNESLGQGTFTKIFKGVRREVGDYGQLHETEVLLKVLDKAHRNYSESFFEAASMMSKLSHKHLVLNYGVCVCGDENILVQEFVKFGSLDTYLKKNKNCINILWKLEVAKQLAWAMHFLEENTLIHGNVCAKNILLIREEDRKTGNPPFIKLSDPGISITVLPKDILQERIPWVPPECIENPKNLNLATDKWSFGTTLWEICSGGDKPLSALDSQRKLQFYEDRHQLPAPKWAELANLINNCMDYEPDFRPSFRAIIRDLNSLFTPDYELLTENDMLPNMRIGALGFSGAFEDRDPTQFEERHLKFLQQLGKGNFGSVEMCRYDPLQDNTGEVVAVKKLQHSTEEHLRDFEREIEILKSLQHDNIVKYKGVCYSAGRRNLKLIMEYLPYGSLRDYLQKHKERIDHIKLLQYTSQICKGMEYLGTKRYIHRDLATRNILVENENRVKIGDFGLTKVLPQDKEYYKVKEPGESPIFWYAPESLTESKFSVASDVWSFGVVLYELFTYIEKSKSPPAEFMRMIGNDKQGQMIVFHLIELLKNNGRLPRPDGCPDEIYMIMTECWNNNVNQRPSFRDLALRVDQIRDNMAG
UniProt Q99755: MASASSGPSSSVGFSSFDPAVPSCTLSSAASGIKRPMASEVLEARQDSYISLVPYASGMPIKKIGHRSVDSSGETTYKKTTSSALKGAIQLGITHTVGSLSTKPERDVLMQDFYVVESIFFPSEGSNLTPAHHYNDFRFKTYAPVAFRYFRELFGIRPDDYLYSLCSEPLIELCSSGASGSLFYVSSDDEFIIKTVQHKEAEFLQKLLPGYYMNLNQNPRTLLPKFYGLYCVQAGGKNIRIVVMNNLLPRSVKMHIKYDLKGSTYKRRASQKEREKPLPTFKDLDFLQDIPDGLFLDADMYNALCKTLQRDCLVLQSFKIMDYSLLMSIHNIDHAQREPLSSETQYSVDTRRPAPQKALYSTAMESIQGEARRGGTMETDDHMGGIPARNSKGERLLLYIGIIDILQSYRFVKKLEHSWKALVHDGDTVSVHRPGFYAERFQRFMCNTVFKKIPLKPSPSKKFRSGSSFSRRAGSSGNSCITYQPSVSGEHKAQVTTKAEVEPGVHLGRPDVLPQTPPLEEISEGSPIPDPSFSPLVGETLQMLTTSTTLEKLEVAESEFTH
UniProt Q9BVS4: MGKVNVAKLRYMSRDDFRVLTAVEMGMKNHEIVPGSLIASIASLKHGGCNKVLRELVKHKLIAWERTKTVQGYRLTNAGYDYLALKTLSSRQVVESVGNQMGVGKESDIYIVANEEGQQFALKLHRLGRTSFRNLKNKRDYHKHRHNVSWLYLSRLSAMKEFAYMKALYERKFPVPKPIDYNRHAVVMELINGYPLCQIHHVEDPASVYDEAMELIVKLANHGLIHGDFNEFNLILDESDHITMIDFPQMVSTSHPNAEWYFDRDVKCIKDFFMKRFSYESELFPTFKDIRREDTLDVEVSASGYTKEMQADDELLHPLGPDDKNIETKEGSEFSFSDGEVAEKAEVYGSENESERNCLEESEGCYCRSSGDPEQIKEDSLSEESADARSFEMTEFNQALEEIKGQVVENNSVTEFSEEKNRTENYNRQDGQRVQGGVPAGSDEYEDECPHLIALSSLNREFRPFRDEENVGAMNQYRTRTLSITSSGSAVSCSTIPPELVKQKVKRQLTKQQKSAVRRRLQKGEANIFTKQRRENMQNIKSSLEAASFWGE
UniProt P35991: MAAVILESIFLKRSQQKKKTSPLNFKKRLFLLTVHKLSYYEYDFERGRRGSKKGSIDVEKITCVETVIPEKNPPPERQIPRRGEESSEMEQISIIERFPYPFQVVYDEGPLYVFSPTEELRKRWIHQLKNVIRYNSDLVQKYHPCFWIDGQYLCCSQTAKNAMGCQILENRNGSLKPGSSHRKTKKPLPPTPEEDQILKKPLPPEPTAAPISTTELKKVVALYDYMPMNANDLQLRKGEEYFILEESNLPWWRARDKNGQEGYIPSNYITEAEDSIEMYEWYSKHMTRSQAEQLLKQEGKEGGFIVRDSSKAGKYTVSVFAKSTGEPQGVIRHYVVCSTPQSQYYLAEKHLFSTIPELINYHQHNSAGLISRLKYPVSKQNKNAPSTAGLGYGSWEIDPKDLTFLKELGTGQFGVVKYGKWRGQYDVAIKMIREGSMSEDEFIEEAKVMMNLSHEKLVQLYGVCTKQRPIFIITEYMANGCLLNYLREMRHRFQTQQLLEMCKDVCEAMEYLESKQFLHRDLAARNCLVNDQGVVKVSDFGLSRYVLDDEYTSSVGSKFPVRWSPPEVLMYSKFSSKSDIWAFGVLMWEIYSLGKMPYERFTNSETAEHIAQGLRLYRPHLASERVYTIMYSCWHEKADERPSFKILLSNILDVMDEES

How the values were obtained:
[1] = molecular target: T1, Mitogen-activated protein kinase kinase kinase 19 (Homo sapiens, UniProt Q56UN5); test: Binding affinity to wild-type human partial length YSK4 (T1019 to H1328 residues) expressed in mammalian expression system by Kinomescan method
T1 sequence (Q56UN5 whole entry): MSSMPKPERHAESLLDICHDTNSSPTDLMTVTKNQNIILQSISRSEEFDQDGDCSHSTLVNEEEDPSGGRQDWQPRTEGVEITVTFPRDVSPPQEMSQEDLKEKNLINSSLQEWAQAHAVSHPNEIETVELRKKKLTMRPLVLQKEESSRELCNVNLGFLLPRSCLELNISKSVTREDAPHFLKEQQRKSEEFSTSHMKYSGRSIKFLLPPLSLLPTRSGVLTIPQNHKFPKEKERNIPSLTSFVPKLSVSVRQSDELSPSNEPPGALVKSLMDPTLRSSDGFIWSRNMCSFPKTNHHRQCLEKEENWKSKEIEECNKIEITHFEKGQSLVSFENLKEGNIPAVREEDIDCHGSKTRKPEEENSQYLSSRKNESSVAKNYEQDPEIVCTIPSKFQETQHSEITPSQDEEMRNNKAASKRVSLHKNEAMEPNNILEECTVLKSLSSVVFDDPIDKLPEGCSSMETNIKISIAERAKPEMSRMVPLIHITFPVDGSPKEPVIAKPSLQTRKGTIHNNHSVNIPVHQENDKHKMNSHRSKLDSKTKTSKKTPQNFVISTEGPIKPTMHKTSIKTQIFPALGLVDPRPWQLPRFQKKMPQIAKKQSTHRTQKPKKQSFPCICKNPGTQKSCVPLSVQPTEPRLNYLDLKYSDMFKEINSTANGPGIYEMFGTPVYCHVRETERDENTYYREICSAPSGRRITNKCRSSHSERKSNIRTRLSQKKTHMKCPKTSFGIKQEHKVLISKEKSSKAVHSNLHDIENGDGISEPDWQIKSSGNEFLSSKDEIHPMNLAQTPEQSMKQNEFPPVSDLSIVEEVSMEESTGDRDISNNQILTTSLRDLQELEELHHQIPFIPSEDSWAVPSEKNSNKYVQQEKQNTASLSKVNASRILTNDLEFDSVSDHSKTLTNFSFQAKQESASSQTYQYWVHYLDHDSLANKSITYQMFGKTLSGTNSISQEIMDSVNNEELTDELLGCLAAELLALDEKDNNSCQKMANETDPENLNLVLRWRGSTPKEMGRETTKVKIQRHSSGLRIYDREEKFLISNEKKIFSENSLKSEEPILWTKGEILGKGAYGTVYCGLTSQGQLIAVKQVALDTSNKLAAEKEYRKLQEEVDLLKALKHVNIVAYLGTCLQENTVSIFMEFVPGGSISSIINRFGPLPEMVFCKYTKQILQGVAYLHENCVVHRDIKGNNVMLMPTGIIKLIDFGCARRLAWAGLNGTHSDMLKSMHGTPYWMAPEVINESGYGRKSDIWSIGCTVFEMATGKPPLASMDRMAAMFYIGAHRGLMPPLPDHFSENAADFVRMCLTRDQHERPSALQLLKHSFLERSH

[2] = molecular target: AP2-associated protein kinase 1 (Homo sapiens, UniProt Q2M2I8); test: Binding affinity to human wild-type AAK1 (G25 to L333 residues) expressed in bacterial expression system by Kinomescan method
[3] = molecular target: BMP-2-inducible protein kinase (Homo sapiens, UniProt Q9NSY1); test: Binding affinity to human wild-type BMP2K (S34 to N329 residues) expressed in bacterial expression system by Kinomescan method
[4] = molecular target: T2, Cyclin-dependent kinase-like 2 (Homo sapiens, UniProt Q92772); test: Binding affinity to wild-type human partial length CDKL2 (M1 to D327 residues) expressed in bacterial expression system by Kinomescan method
T2 sequence (Q92772 whole entry): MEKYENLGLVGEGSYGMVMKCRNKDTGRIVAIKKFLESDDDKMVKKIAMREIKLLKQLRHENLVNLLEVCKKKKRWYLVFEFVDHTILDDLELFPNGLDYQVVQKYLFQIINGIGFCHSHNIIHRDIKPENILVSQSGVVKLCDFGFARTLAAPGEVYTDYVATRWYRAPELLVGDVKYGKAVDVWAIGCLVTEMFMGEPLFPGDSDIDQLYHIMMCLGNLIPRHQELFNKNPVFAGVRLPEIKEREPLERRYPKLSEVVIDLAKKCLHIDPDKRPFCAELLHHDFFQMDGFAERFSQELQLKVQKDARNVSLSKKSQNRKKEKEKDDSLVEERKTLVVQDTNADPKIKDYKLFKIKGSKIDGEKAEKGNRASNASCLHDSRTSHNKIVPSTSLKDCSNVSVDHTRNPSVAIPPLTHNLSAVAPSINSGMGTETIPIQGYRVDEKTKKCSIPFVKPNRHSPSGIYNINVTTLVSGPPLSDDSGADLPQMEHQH

[5] = molecular target: Tyrosine-protein kinase JAK2 (Homo sapiens, UniProt O60674); test: Binding affinity to wild-type human partial length JAK2 JH1 catalytic domain (A829 to G1132 residues) expressed in mammalian expression system by Kinomescan method
[6] = molecular target: Phosphatidylinositol 4-phosphate 5-kinase type-1 alpha (Homo sapiens, UniProt Q99755); test: Binding affinity to wild-type human full length PIP5K1A (M1 to H562 residues) expressed in bacterial expression system by Kinomescan method
[7] = molecular target: T3, Serine/threonine-protein kinase RIO1 (Homo sapiens, UniProt Q9BRS2); test: Binding affinity to wild-type human full length RIOK1 (M1 to K568 residues) expressed in bacterial expression system by Kinomescan method
T3 sequence (Q9BRS2 whole entry): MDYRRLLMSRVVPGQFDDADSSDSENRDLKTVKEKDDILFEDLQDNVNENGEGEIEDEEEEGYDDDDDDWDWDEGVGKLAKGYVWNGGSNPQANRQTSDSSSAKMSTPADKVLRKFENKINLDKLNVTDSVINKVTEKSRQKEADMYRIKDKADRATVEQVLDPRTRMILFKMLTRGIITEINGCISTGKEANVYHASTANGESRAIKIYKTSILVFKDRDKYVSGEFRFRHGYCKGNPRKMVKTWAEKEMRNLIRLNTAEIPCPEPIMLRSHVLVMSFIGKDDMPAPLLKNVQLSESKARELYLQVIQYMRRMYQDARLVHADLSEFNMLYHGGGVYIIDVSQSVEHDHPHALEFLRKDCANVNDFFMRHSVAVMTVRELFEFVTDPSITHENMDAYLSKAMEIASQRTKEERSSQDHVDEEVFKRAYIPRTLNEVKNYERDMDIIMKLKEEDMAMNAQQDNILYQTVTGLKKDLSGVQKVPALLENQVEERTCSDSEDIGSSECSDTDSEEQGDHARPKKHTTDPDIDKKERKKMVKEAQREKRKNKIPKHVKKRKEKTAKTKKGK

[8] = molecular target: Serine/threonine-protein kinase RIO2 (Homo sapiens, UniProt Q9BVS4); test: Binding affinity to wild-type human partial length RIOK2 (M1 to D313 residues) expressed in mammalian expression system by Kinomescan method
[9] = molecular target: Tyrosine-protein kinase BTK (Mus musculus) (UniProt P35991); conditions: DBA1, dose 30.0 mg/kg, time 10.0 day

Kd [1]: 130 nM
Kd [2]: 430 nM
Kd [3]: 1100 nM
Kd [4]: 420 nM
Kd [5]: 460 nM
Kd [6]: > 10000 nM
Kd [7]: 1200 nM
Kd [8]: 2400 nM
inhibition [9]: 90%
Compound: Cc1cc(-c2ccnc(Nc3cnn(C)c3)n2)ccc1CNC(=O)N1CC(OC(C)C)C1
